Data on five compounds can be found in patent US20250295642A1, “FLUOROQUINOXALINONE DERIVATIVE FOR SELECTIVELY INHIBITING PARP1” (MEDSHINE DISCOVERY INC., priority 2022, published 2025).

In one series the test system is DLD1 (BRCA2 KO) cells. The series can be described thus: Anti-proliferation assay on DLD1 cells (BRCA2 KO). The class given is cell-based. As to conditions: read-out: IC50, anti-proliferation on DLD1 (BRCA2 KO) cells, incubated for 7 days, chemiluminescent cell viability.
Series [1] can be described thus: In vitro liver microsomal stability, human liver microsomes. The settings on record: 1 μM, 0.5 mg/mL, NADPH, up to 60 minutes, tested form: TFA salt.
Series [2] in a line: In vitro liver microsomal stability, mouse liver microsomes. The settings on record: tested form: TFA salt.
A short description of series [3]: In vivo pharmacokinetic evaluation in mice. As to conditions: for C0 / Cmax: compound 16 salt female BALB/C, compound 15 salt male CD-1, tested form: TFA salt; for AUC0-last / Cl / T1/2 / Tlast / Vdss / Tmax: tested form: TFA salt.
The subject of a further series is MDR1-MDCK II cell line. Kind of series: Permeability evaluation on MDR1-MDCK II cell line. The class given is in vitro ADME.
Series [4] relates to MDA-MB-436 cells (BRCA1 mutation). Kind of series: Anti-proliferation assay on MDA-MB-436 cells (BRCA1 mutation). As to conditions: read-out: IC50, proliferation inhibition on MDA-MB-436 cells (BRCA1 mutation), incubated for 7 days, chemiluminescent cell viability.
Series [5] in a line: Brain penetration evaluation in mice. The settings on record: PO 10 mg/kg, 2-hour time point, tested form: TFA salt.
Series [6] in a line: Pharmacokinetic evaluation in rats. As to conditions: male SD rats, tested form: TFA salt.
Series [7] relates to human breast cancer MDA-MB-436 cell subcutaneous xenograft tumor. Kind of series: In vivo pharmacodynamic study, MDA-MB-436 subcutaneous xenograft tumor model. As to conditions: 1.0 mg/kg p.o. once daily, tested form: TFA salt.
Series [8] can be described thus: Brain penetration evaluation in rats. The settings on record: PO 5 mg/kg, 2-hour time point, tested form: TFA salt.
Setting [9] is: 2.00 μM, 150 minutes, pH 7.40, tested form: TFA salt.

Like-named read-outs stand apart in the source and are kept apart here.

Take `CNC(=O)c1ccc2c(n1)CC[C@H]1CN(Cc3cc(F)c4nc(C)c(=O)[nH]c4c3F)CCN21`: in the series with DLD1 (BRCA2 KO) cells, the IC50 came to 10 nM.

On to `CNC(=O)c1ccc2c(n1)OC[C@H]1CN(Cc3ccc4nc(C)c(=O)[nH]c4c3F)CCN21`, for which the entries for the “CLint(liver)” value in series [1] and in series [2] were under 8.6 mL/min/kg and under 38 mL/min/kg, respectively.

For `CNC(=O)c1ccc(N2CCN(Cc3ccc4c([nH]c(=O)c5cccnc54)c3F)CC2)c(F)n1` [Compound 15], in [3] (IV 2 mg/kg), the C0 is 4.21 µM, the AUC0-last stood at 9.23 µM·h, the Cl is listed as 7.7 mL/min/kg and the T1/2 is reported as 3.7 h. In series [3] (IV 2 mg/kg), the Tlast came out at 24.0 h and the Vdss was 2.1 L/kg. For the same compound, in [3] (PO 10 mg/kg), the Cmax is 13.7 µM, the AUC0-last was determined as 61.6 µM·h, the T1/2 amounted to 4.1 h and the Tlast is reported as 24.0 h. The Tmax in [3] (PO 10 mg/kg) is given as 0.25 h. For the same compound, in the series with MDR1-MDCK II cell line (setting [9]), the “Permeability Papp A to B” value is recorded as 25.2 10^−6 cm/s and the “Permeability Papp B to A” value is given as 17.7 10^−6 cm/s. In the series with MDR1-MDCK II cell line (2.00 μM, tested form: TFA salt), the Efflux ratio was 0.703. Further, the Permeability conclusion entry with MDR1-MDCK II cell line (tested form: TFA salt) is recorded as “High”. Further, the IC50 in [4] (tested form: TFA salt) amounted to 1.58 nM. Moreover, in series [5], the Brain-to-plasma drug concentration ratio came out at 0.7, the “C2 h Brain drug concentration” value amounted to 5.814 µM and the “C2 h Plasma drug concentration” value was 8.467 µM. Moreover, the IC50 in the series with DLD1 (BRCA2 KO) cells (tested form: TFA salt) is 1.71 nM. In series [6] (IV 1 mg/kg), the AUC0-last worked out at 5.82 µM·h, the C0 is 2.12 µM, the Cl turned out to be 6.0 mL/min/kg and the T1/2 is given as 5.2 h. In addition, in [6] (IV 1 mg/kg), the Tlast amounted to 24.0 h and the Vdss came to 2.1 L/kg. Besides, the “F (bioavailability)” value in [6] (PO 5 mg/kg, calculated using AUC0-last) is listed as 78%. Further, in [6] (PO 5 mg/kg), the AUC0-last turned out to be 22.9 µM·h, the Cmax is 2.83 µM, the T1/2 turned out to be 3.3 h and the Tlast was determined as 24.0 h. Also, the Tmax in series [6] (PO 5 mg/kg) was determined as 4 h. In addition, in [7], the “T/C (relative tumor proliferation rate) D24” value came out at 14% and the “TGI (tumor growth inhibition rate) D24” value was 104%. Also, in series [8], the Brain-to-plasma drug concentration ratio was 0.7, the “C2 h Brain drug concentration” value came out at 5.814 µM and the “C2 h Plasma drug concentration” value came out at 8.467 µM.

Take `CNC(=O)c1ccc2c(n1)CC[C@H]1CN(Cc3ccc4nc(C)c(=O)[nH]c4c3F)CCN21`: in [3] (IV 2 mg/kg), the C0 worked out at 14 µM, the AUC0-last was determined as 17.915 µM·h, the Cl was determined as 4.0 mL/min/kg and the T1/2 worked out at 0.25 h. In series [3] (IV 2 mg/kg), the Tlast worked out at 24.0 h and the Vdss is recorded as 1.54 L/kg. Also, in [3] (PO 10 mg/kg), the Cmax worked out at 42.7 µM, the AUC0-last was 173.382 µM·h, the T1/2 is listed as 2 h and the Tlast is listed as 24.0 h. For the same compound, the Tmax in series [3] (PO 10 mg/kg) is listed as 0.5 h.

As for `[2H]C([2H])([2H])NC(=O)c1ccc(N2CCN(Cc3ccc4c([nH]c(=O)c5cccnc54)c3F)CC2)c(Cl)n1`, the IC50 in series [4] amounted to 0.36 nM.
